Test results taken from ChEMBL document CHEMBL3297684, “Discovery of biarylaminoquinazolines as novel tubulin polymerization inhibitors” (J Med Chem, 2014).
Activity calls are given as the source filed them. The rule behind the calls is not given here.

Protein sequences, listed by entry. Tags and fused reporters are not part of them.
UniProt Q6B856, whole entry, looked up: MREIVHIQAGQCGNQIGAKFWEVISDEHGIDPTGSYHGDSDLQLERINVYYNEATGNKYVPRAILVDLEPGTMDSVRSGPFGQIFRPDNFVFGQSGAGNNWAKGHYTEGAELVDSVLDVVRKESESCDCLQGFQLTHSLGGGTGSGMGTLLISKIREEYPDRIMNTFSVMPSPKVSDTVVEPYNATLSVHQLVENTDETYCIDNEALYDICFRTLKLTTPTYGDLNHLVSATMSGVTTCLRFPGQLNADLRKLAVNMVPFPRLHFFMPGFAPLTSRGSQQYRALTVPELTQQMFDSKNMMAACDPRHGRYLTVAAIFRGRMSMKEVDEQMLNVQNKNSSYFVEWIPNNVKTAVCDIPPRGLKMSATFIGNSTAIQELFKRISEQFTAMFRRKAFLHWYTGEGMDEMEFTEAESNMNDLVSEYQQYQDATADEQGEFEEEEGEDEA

What was measured:
Tubulin (Bos taurus) [1] = target: T1, Tubulin (Bos taurus) (UniProt Q6B856+Q862L2+Q862F3); test: Stimulation of bovine brain tubulin polymerization after 20 mins by turbidimetry analysis
Tubulin (Bos taurus) [2] = target: T1, Tubulin (Bos taurus); test: Stimulation of [3H]colchicine binding to bovine brain tubulin at 5 uM after 10 mins

## CC(=O)O[C@H]1C(=O)[C@@]2(C)[C@H]([C@H](OC(=O)c3ccccc3)[C@]3(O)C[C@H](OC(=O)[C@H](O)[C@@H](NC(=O)c4ccccc4)c4ccccc4)C(C)=C1C3(C)C)[C@]1(OC(C)=O)CO[C@@H]1C[C@@H]2O [PACLITAXEL]
Tubulin (Bos taurus) [1]
  Activity: Active
Tubulin (Bos taurus) [2]
  Activity: Active
